Test system: aromatase
Experiment: in vivo inhibition of aromatase activity: suppression of ovarian estrogen content of PMS-hCG primed female rats
Settings: Rattus norvegicus, po

In the case of N#Cc1ccc(C2CCc3cncn32)cc1 (stereo not shown) [Example 31, 5H-5-(4-cyanophenyl)-6,7-dihydropyrrolo[1,2-c]imidazole], the minimal effective dose is reported as 0.025 mg/kg.

— patent US4889861A, “Substituted imidazo[1,5-a]pyridine derivatives and other substituted bicyclic derivatives and their use as aromatase inhibitors” (Ciba-Geigy Corp., priority 1987, dated 1989)
